# Laboratory results as given in PubChem BioAssay AID1487 (National Center for Advancing Translational Sciences (NCATS), 2009).
# In all, about 200,000 compounds went through this assay and about 25 (0.01%) were called active. All entries are inconclusive by the source's own rule. Clear calls are listed elsewhere. Calls follow the shape of the dose curve; as a rule, active = well fitted inhibition curve with a large enough effect in the signal ratio, with a control signal flat (not every such curve was filed as active); inconclusive = small, poorly fitted or top-dose-only effect, or effect the other way, or a change in a side signal; inactive = flat fitted curve, though single readings scatter; the % refers to the signal ratio.
# Test: qHTS Assay for Modulators of Lamin A Splicing
# Conditions: HeLa LMNA splicing GFP/RFP minigene ratio, 48 h; ratio change, negative = inhibition: at 46.1 µM (top of the series) unless noted
# % is scaled to controls: 0 for no effect and ±100 for the full control effect; potency is read from the fitted curve at half-maximal effect.
SMILES,Potency,"ratio change, negative = inhibition"
CCC(C)N(CC(C)C)C(=S)SC(NC(C)=O)C(Cl)(Cl)Cl (stereo not given),inconclusive: 12.6 µM,
O=P(Nc1ccccn1)(c1cccc2ccccc12)c1cccc2ccccc12,inconclusive: 20 µM,
CCOP(=O)(Nc1cccc2ccccc12)OCC,inconclusive: 11.2 µM,
NC(=O)Nc1ccc([As](=O)(O)O)cc1,inconclusive: 0.0631 µM,inconclusive: -4.67%
CC1CCC(C(C)C)C(OP(=O)(Nc2ccccn2)c2ccccc2)C1 (stereo not given),inconclusive: 0.0631 µM,
O=P1(Nc2ccc(Br)cn2)COc2ccccc2OC1,inconclusive: 35.5 µM,
CN(CCCl)Cc1cc(Cl)c(NC2=NCCN2)c(Cl)c1,inconclusive: 35.5 µM,
CN(C(=O)Cc1ccc(Cl)c(Cl)c1)[C@@H]1CCCC[C@H]1N1CCCC1,,inconclusive: -30.5%
CC(C)/C=N\N=C(\N)N[N+](=O)[O-],inconclusive: 31.6 µM,
C(Cc1nn[nH]n1)Cc1nn[nH]n1,inconclusive: 0.0079 µM,
CCNC(=S)/N=C(\N)N[N+](=O)[O-],inconclusive: 0.447 µM,
CN(C(=O)Cc1ccc(Cl)c(Cl)c1)[C@@H]1CCCC[C@@H]1N1CCCC1,,inconclusive: -38.5%
O=c1c2cc([N+](=O)[O-])ccc2[nH]c2c([N+](=O)[O-])cc([N+](=O)[O-])cc12,inconclusive: 12.6 µM,
CC(=O)Nc1ccc(Oc2c([N+](=O)[O-])cc([N+](=O)[O-])cc2[N+](=O)[O-])cc1,inconclusive: 35.5 µM,
NC(=O)c1cc([N+](=O)[O-])cc([N+](=O)[O-])c1N,inconclusive: 1 µM,
COc1ccccc1OP(=O)(Nc1ccc(C)cn1)Oc1ccccc1OC,,inconclusive: 14.5% [at 46 µM]
Cc1c2non([O-])c-2c(C)[n+](=O)[n+]1[O-],inconclusive: 11.2 µM,
CN(C(=O)Cc1ccc(Cl)c(Cl)c1)[C@H]1CCCC[C@@H]1N1CCCC1,,inconclusive: -33.6%
CCc1nc2c(n1)c1c(non1O)c1c2no[n+]1[O-],inconclusive: 35.5 µM,
